Measured values: patent US20030148264A1, “Phage displayed PDZ domain ligands” (GENENTECH, INC., priority 2001, published 2003)

Target: T1, MAGI 3 PDZ2 (Homo sapiens, UniProt Q5TCQ9)
T1 sequence (Q5TCQ9 584-707 isoform Q5TCQ9-2): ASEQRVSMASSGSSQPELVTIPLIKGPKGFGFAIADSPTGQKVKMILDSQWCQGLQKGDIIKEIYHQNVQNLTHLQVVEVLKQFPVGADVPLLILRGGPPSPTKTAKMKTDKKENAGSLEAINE
Test: Competition ELISA, peptide blocking PDZ domain binding to immobilized peptide
Set-up: made in house; host or cells: E. coli
Settings: MAGI 3 PDZ2; concentration of peptide that blocked 50% of PDZ domain binding to immobilized peptide in an ELISA; read-out: IC50 (μM) PDZ2
Description: Many methods are known and can be used to identify the binding affinities of PDZ domain binding ligands (e.g. peptides, proteins, small mollecules, etc.); for example, binding affinities can be determined as IC50 values using competition ELISAs. The IC50 value is defined as the concentration of ligand which blocks 50% of PDZ domain binding to a ligand. For example, in solid phase assays, assay plates may be prepared by coating microwell plates (preferably treated to efficiently absorb protein) with neutravidin, avidin or streptavidin. Non-specific binding sites are then blocked through addition of a solution of bovine serum albumin (BSA) or other proteins (for example, nonfat milk) and then washed, preferably with a buffer containing a detergent, such as Tween-20. A biotinylated known PDZ-domain ligand (for example, the phage peptides or cognate protein as fusions with GST or other such molecule to facilitate purification and detection) is prepared and bound to the plate. Serial delutions of the ligand to be tested with a PDZ domain polypeptide arc prepared and contacted with the bound ligand. The plate coated with the immobilized ligandis washed before adding each binding reaction to the wells and briefly incubated. After further washing, the binding reactions are detected, often with an antibody recognizing the non-PDZ fusion partner and a labeled (such as horseradish peroxidase (HRP), alkaline phosphatase (AP), or a fluorescent tag such as fluorescein) secondary antibody recognizing the primary antibody. The plates are then developed with the appropriate substrate (depending on the label) and the signal quantified, such as using a spectrophotometric plate reader. The absorption signal may be fit to a binding curve using a least squares fit. Thus the ability of the various ligands to inhibit PDZ domain from binding a known PDZ-domain ligand can be measured.
Prokaryotic: The ERBIN PDZ domain (aa. 1217-1371 of SEQ ID NO:201) or MAGI-3 PDZ 2 (aa. 584-707 of SEQ ID NO:200) were cloned into the EcoR 1/Not 1 or BamH 1/Not 1 sites of pGEX 6P-1 and pGEX 4T-3 E. coli expression vectors (Pharmacia) respectively. Expression and affinity purification of E coli expressed GST-proteins was performed as recommended by the manufacturer (Pharmacia).
Peptides corresponding to the selected sequences were synthesized and assayed for binding (Table 2). […] The data also confirmed that the minimal tetrapeptide selectants from the PDZ2 sort bind PDZ2 with high affinity. […] It appears that this large difference in binding affinity is attributable to the residue at P(−1), which is a Trp in the selected peptide as opposed to a Lys in PTEN/MMAC (compare HTQITWV with HTQITKV (SEQ ID NO:220), Table 2; The IC50 values are the concentrations of peptide that blocked 50% of PDZ domain binding to immobilized peptide in an ELISA).

Compound	IC50
CC(C)[C@H](NC(=O)[C@H](Cc1c[nH]c2ccccc12)NC(=O)[C@H](CO)NC(=O)[C@H](C)N)C(=O)O [ASWV]	35 µM
CC(C)[C@H](NC(=O)[C@H](Cc1c[nH]c2ccccc12)NC(=O)[C@H](C)NC(=O)[C@@H](N)CS)C(=O)O [CAWV]	7.3 µM
CC(C)[C@H](NC(=O)[C@H](C)NC(=O)[C@H](CO)NC(=O)[C@@H](N)CS)C(=O)O [CSAV]	200 µM

The remaining lines, values ahead:

IC50	Compound
400 µM	C[C@H](NC(=O)[C@H](Cc1c[nH]c2ccccc12)NC(=O)[C@H](CO)NC(=O)[C@@H](N)CS)C(=O)O [CSWA]
1.4 µM	CC(C)[C@H](NC(=O)[C@H](Cc1c[nH]c2ccccc12)NC(=O)[C@H](CO)NC(=O)[C@@H](N)CS)C(=O)O [CSWV]
4 µM	CC(C)[C@H](N)C(=O)N[C@H](C(=O)N[C@@H](Cc1c[nH]c2ccccc12)C(=O)N[C@H](C(=O)O)C(C)C)[C@@H](C)O [VTWV]

Same assay, conditions: MAGI 3 PDZ2 domain; read-out: IC50

IC50	Compound
1 µM	CC(C)[C@H](NC(=O)[C@H](Cc1c[nH]c2ccccc12)NC(=O)[C@H](CO)NC(=O)[C@@H](N)CS)C(=O)O [CSWV]
